pKi: −log10 of the molar value. Counter-ions that a name gives are not always drawn.

The target in this experiment is NMDA receptor. Description: [3H]MK-801 binding assay, NMDA receptors in guinea pig brain membranes. The settings on record: [3H]MK-801 1 nM, read-out: Ki at the NMDA site (standard compounds). The procedure: Hartley guinea pigs were sacrificed, and their brains were quickly removed and weighed. The brains then were homogenized in 50 mM Tris HCl buffer, pH 7.7, using a Polytron homogenizer. The homogenate was centrifuged at 40,000×g for 15 min, rehomogenized, and centrifuged again. The final pellet was resuspended in Tris-HCl, pH 7.7, at a final concentration of 6.67 mg original wet weight of tissue/ml. […] The samples were then filtered through glass fiber filters on a Tomtec cell harvester. The filters were washed 3 times with 3 ml of cold buffer. Filters were dried overnight and counted next day on a Wallac Betaplate Reader.
The binding experiments were conducted as follows. […] For each compound, graphs were prepared containing individual competition curves obtained for that compound. IC50 values and Hill coefficients were calculated using the program Prism. Ki values were calculated using the Chang Prusoff transformation: Ki═IC50/(1+L/Kd)
where L is radioligand concentration and Kd is the binding affinity of the radioligand, as determined previously by saturation analysis. […] In each experiment, one standard compound was simultaneously run on each 96 well plate.

Turning to `NC12CC3CC(CC(C3)C1)C2` [Amantadine, 1-aminoadamantane hydrochloride, reference compound], the pKi was 7.79.

A word on the pKi: it is −log10 of the Ki, conventionally taken in molar units.

The record behind these values is patent US20060258748A1 (Chevron U.S.A. Inc., priority 2005, published 2006).
